Test results published in patent publication US11400130B2, “Inhibitors for proliferating cell nuclear antigen and uses” (Purdue Research Foundation, priority 2015, dated 2022).

The chains behind the UniProt entries cited, without tags or fusion partners. A line that says so, or that is headed by a name, gives the form on record, which may keep a tag or linker. Residues count along the entry.
UniProt P12004, 1-261 with tags or gaps: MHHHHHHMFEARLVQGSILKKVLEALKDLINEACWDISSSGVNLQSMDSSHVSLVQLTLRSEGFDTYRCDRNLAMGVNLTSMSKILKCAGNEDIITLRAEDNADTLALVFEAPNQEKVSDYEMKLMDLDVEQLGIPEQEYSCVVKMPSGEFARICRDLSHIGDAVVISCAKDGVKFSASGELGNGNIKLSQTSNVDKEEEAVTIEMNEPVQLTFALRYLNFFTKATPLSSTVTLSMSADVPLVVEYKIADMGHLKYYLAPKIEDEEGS

Biological target: PCNA (Homo sapiens, UniProt P12004)
Experiment: Fluorescence polarization competition assay (displacement of FAM-PL from His-tagged PCNA)
Details: for Ki: calculated from IC50 using equation 5 (modified Cheng-Prusoff), 95% confidence interval around the mean; for IC50: disruption of PCNA / FAM-PL binding, values are 95% confidence interval around the mean

Structure (SMILES)	Ki	IC50
NCC(=O)N(CC(=O)N(CC(N)=O)Cc1ccc(CO)cc1)Cc1ccc2c(c1)OCO2	745 nM	7740 nM
NC(=O)C[C@H](NC(=O)CN[C@H](CO)Cc1cc(I)c(Oc2ccc(O)cc2)c(I)c1)C(N)=O	693 nM	7200 nM
NC(=O)CN(Cc1ccc2c(c1)OCO2)C(=O)CNC(=O)CN[C@H](CO)Cc1cc(I)c(Oc2ccc(O)cc2)c(I)c1	1560 nM	16200 nM

These reach a lower Ki. Values come first.

Ki	IC50	Structure (SMILES)
339 nM	3520 nM	NC(=O)CC[C@H](NC(=O)CN[C@H](CO)Cc1cc(I)c(Oc2ccc(O)cc2)c(I)c1)C(N)=O
186 nM	1940 nM	NCCCCNCC(=O)N(CC(=O)N(CC(N)=O)Cc1ccc(CO)cc1)Cc1ccc2c(c1)OCO2
